# Patent publication US20040116330A1, “Preventive/therapeutic method for cancer” (priority 2001, published 2004)
# System: HER2 high expression human breast cancer cell BT-474
# Test: Anti-tumor effect, combined use, BT-474 cancer-bearing nude mice
# Type: in vivo
# Conditions: BT-474 nude mice; compound B4 20 mg/kg/day orally 14 days; trastuzumab 10 mg/kg i.p. twice a week for 2 weeks; or both
substance,measurement,value
trastuzumab: trastuzumab (Herceptin (trade mark); anti-HER2 antibody) [reference compound],growth rate (T/C (%)),−17%
